Among the data in article PMC9207808 (ACS Chemical Biology, 2022) are Kd values, retold here.

Sequences of proteins named here, by UniProt entry; tags and fusion partners are left off. A change or cut given only in a name is not applied to a line headed by its entry.
UniProt Q06259: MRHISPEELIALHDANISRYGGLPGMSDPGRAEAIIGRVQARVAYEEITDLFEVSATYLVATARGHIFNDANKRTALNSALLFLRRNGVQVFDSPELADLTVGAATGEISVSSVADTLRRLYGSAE

In assay [1] the target is Doc (Salmonella Typhimurium) (UniProt Q06259). The settings on record: cited from earlier work.
Assay [2] concerns the target DocSTm. The experiment in a line: Surface plasmon resonance binding to immobilised Doc. The settings on record: SPR kinetic fit. Also noted: species or system S. Typhimurium. On the procedure: Experiments were performed in a Biacore S200 (Cytiva) with a Series S sensor chip NTA (Cytiva). The data was analyzed using the Biacore Evaluation Software (Cytiva) and curves were plotted using GraphPad Prism 5 (GraphPad Software, U.S.A.). All experiments were performed at 22 °C with a running buffer containing 10 mM HEPES, 500 mM NaCl, 50 μM EDTA, and 0.005% (v/v) TWEEN 20 at pH 8.0. The surface was conditioned following the standard manufacturer’s guidelines and protein immobilization was performed with a 30–60 s pulse (flow rate of 5 μL/min) of Doc (150 nM) in running buffer. […] Surface regeneration was performed with a 1 min pulse of 0.5 M imidazole followed by a 1 min pulse of 0.35 M of EDTA at pH 8.0.
Binding to Doc was performed using a multicycle kinetics (MCK) setup for peptides 7, 10, and 14, while the remaining samples were tested using a single-cycle kinetics (SCK) setup. The surface was fully regenerated in between each analyte in both cases. In the MCK experiments, increasing concentrations of each analyte were injected with an 80 s pulse (30 μL/min) and dissociation times varied depending on the time required to fully dissociate the complex. The double-referenced sensorgrams (raw data subtracted from a blank injection and reference surface responses) were analyzed using a kinetic and/or a steady-state 1:1 binding model. In the SCK experiments, typically six concentrations of each analyte were sequentially injected with 80 s pulses (30 μL/min), and dissociation times varied depending on the time required to dissociate at least 5% of the complex. The double-referenced sensorgrams were fitted using a kinetic 1:1 binding model.
At least three independent replicates were measured for each analyte (ESI section 5). When a steady-state fit was applied, the reported Kd and its uncertainty correspond, respectively, to the average and standard deviations of the Kd obtained in each measurement. […] In this case, reported Kd were calculated using the equation below, and the standard deviation of the rate constants was propagated. […]
A general note: In SPR one partner is held on a chip, and binding of the other changes the refractive index at the surface.

By Kd is commonly meant the free concentration of one partner at which half of the binding sites on the other are occupied at equilibrium, for simple one-to-one binding.

Phd (from UniProt Q06253): the Kd in assay [1] is 350 nM.
Turning to “PhdSTm: full-length wild-type Phd antitoxin protein of S. Typhimurium”, the Kd came to 0.0507 nM in assay [2] (replicate 1), 0.0505 nM in assay [2] (replicate 2) and 0.0883 nM in assay [2] (replicate 3).
